Experimental data from patent US8232099B2, “Method for transcription/degradation dual control of protein by antibiotic” (Japan Science and Technology Agency, priority 2007, dated 2012).
Residues, ends and D or L forms follow the SMILES beside them. *: point of attachment. Cbz = O=C(OCc1ccccc1)*

The chains behind the UniProt entries cited, without tags or fusion partners.
UniProt P04483, whole entry D95N/L101S/G102D: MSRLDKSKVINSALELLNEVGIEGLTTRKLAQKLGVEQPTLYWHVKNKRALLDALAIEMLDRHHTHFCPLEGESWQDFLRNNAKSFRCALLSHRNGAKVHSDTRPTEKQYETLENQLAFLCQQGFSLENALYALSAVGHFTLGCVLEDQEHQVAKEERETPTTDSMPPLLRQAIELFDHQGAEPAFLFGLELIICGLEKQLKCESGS

Target: T1, mutant TetR-EGFP (Escherichia coli, UniProt P04483, D95N/G102D/L101S)
T1 construct: prepare a DNA fragment encoding TetR with no termination codon; expressed in transfected cells; host or cells: human cell line HEp-2, vector pEB6CAG
Assay: Flow cytometer fluorescence of HEp-2 cells expressing mutant TetR-EGFP
Format: cell-based, human
Settings: 100 μg/ml MG132, 12 hours
Excerpt: All of or any two mutations in combination from three types of mutations, which substitute aspartic acid at the 95th position with asparagine, leucine at the 101st position with serine and glycine at the 102nd position with aspartic acid, were introduced into the tetracycline repressor (TetR), which is an Escherichia coli protein that binds to the antibiotic tetracycline (Tet). The procedure was as follows:
An oligonucleotide encoding an amino acid sequence containing the amino acid substitution to be introduced was synthesized, and this was used to prepare a DNA fragment containing a mutation by PCR reaction. […]
An oligo-DNA was synthesized, having a base sequence in which the termination codon has been substituted so as to encode another amino acid instead of the termination codon in the TetR gene, and downstream thereof, a sequence that is recognized and cut by a restriction enzyme; this was used to carry out a PCR reaction to prepare a DNA fragment encoding TetR with no termination codon, and this was substituted with the corresponding site on the DNA encoding the wild-type gene. Then, the DNA was cut by a restriction enzyme and ligated with the upstream side of a DNA fragment encoding EGFP in such a way that the translation open reading frames for protein synthesis match (FIG. 1A). […]

CC(C)C[C@@H](C=O)NC(=O)[C@H](CC(C)C)NC(=O)[C@H](CC(C)C)NC(=O)OCc1ccccc1 [MG132] (Cbz-Leu-Leu-Leu-aldehyde)
change in intensity of fluorescence: remarkable enhancement of fluorescence
